The list shows a part of the results, in another mix than the full data. Calls of active or inactive are those of the source.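 The calls were made as follows: active = activation above the mean of all tested compounds plus 3 SD (cut at about 5.5% in these data); inactive = the rest.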
test system: DAF-12 nuclear receptor (Haemonchus contortus); assay: H. contortus DAF-12 nuclear receptor activators, primary screen, cell-based, luminescence, HEK293, lit1-tk-luc reporter (AID 652067); settings: HEK293 hcDAF-12 lit1-tk-luc reporter, at 6.8 µM, hits give high values, 0% DMSO, 100% Δ7-dafachronic acid;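 also: 100% = response to 3 µM Δ7-dafachronic acid high control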

`N#CCCN(C(=O)COC(=O)C(O)(c1ccccc1)c1ccccc1)c1ccc(F)cc1` was tested. Which activation did it give?
Its activation is inactive: -1.08%.

For `CCOP1(=S)c2c(C)nn(CCC#N)c2N=C(c2ccc(F)cc2)N1C` (stereo not drawn), which activation is on record?
The activation was inactive: -1.51%.

For `CN(C(=O)Cc1ccccc1)[C@@H]1CC[C@]2(CCCO2)C[C@H]1N1CCCC1`, which activation is on record?
Its activation is inactive: -0.78%.

For `CN(C)C(=O)c1cc([N+](=O)[O-])cc2c1-c1c(cc([N+](=O)[O-])cc1[N+](=O)[O-])C2=O`, which activation is on record?
Its activation is inactive: 2.58%.

Which activation does the source give for `O=[N+]([O-])c1ccc2c(c1)nnn2O` here?
Its activation is inactive: -1.43%.

Which activation does the source give for `CN(C(=O)Cc1ccc(Cl)c(Cl)c1)[C@H]1CC[C@@]2(CCCO2)C[C@@H]1N1CCCC1` here?
Its activation is inactive: -0.71%.

With `NC(=O)Nc1ccc([As](=O)(O)O)cc1` as the compound, how does the activation read?
Its activation is inactive: 0.28%.

How did the activation turn out when `CN(C)C1(CNC(=O)c2ccc(S(C)(=O)=O)cc2)CCCCC1` was run?
Its activation is inactive: -1.31%.

How did the activation turn out when `O=C(/C=C/c1ccccc1)OC1CN2CCC1CC2` (stereo not drawn) was run?
The activation was inactive: -1.46%.

With `CCCC1OP(=O)(Nc2ccccc2)OCC1CC` (stereo not drawn) as the compound, how does the activation read?
Its activation is inactive: 1.31%.

How did the activation turn out when `Cc1nn(-c2ccccc2)c2c1P(=O)(N1CCOCC1)N(C)C(c1ccccc1)=N2` (stereo not drawn) was run?
The activation was inactive: -1.32%.

`CC1CCC(C(C)C)C(OP(=O)(Nc2ccccn2)c2ccccc2)C1` (stereo not drawn) was tested. Which activation did it give?
Its activation is inactive: -1.43%.

For `Cc1ccc(C(=O)OC2CN3CCC2CC3)cc1` (stereo not drawn), which activation is on record?
Its activation is inactive: 1.77%.

`Nc1cccc([As](=O)(O)c2ccccc2)c1` was tested. Which activation did it give?
The activation was inactive: -1.42%.

With `O=P1(Nc2ccc(Br)cn2)COc2ccccc2OC1` as the compound, how does the activation read?
Its activation is inactive: 1.44%.

`NS(=O)(=O)c1cccc(NC(=O)COC(=O)C(O)(c2ccccc2)c2ccccc2)c1` was tested. Which activation did it give?
Its activation is inactive: 0.19%.

`Cc1ccc(OCC(=O)OC2CN3CCC2CC3)cc1` (stereo not drawn) was tested. Which activation did it give?
Its activation is inactive: -1.73%.

Which activation does the source give for `O=[As](O)(c1cccs1)c1cccs1` here?
The activation was inactive: -0.98%.

Which activation does the source give for `Cc1ccc(S(=O)(=O)N(CCCN)CCCc2c(C)nc(N)[nH]c2=O)cc1` here?
The activation was inactive: 0.24%.

Which activation does the source give for `O=P1(Nc2ncccn2)COc2ccccc2OC1` here?
Its activation is inactive: -0.64%.

For `O=P1(N(CCCl)CCCl)NCCC(C(F)(F)F)O1` (stereo not drawn), which activation is on record?
The activation was inactive: -0.83%.

`Clc1n[nH]nc1-c1nn[nH][15n]1` was tested. Which activation did it give?
Its activation is inactive: -1.27%.

For `CC(C)(C)C(=O)NC(Sc1ncccn1)C(Cl)(Cl)Cl` (stereo not drawn), which activation is on record?
Its activation is inactive: 1.41%.

`O=P1(Nc2ccccn2)COc2ccccc2OC1` was tested. Which activation did it give?
Its activation is inactive: -1.45%.

Which activation does the source give for `CCC1=CC2Cc3nc4ccc(Cl)cc4c(N)c3C(C1)C2` (stereo not drawn) here?
The activation was inactive: -2.67%.

For `CCOP(=O)(NC(=NC(C)c1ccccc1)NC(C)c1ccccc1)OCC` (stereo not drawn), which activation is on record?
The activation was inactive: 1.24%.

Which activation does the source give for `CN(CCCl)Cc1cc(Cl)c(NC2=NCCN2)c(Cl)c1` here?
The activation was inactive: 1.68%.

With `CCOP(=O)(Nc1ccc(C)cn1)OCC` as the compound, how does the activation read?
Its activation is inactive: -0.31%.

Which activation does the source give for `CC(C)/C=N\N=C(\N)N[N+](=O)[O-]` here?
The activation was inactive: -1.06%.

For `CN(C(=O)Cc1ccc(Cl)c(Cl)c1)[C@@H]1CCCC[C@H]1N1CCCC1`, which activation is on record?
The activation was inactive: 3%.

With `CN(C(=O)Cc1ccc(Cl)c(Cl)c1)C1CCCC[C@@H]1N1CCCC1` (stereo partly drawn) as the compound, how does the activation read?
The activation was inactive: 0.47%.

How did the activation turn out when `CC1(CBr)Cn2c(nc3ccccc3c2=O)S1` (stereo not drawn) was run?
Its activation is inactive: -0.89%.

With `COc1ccccc1CNC(=O)COC(=O)C(O)(c1ccccc1)c1ccccc1` as the compound, how does the activation read?
Its activation is inactive: -0.06%.

For `O=C(O)C(=O)c1ccc(N(CCCl)CCCl)cc1`, which activation is on record?
The activation was inactive: -0.85%.

For `O=C(COc1ccccc1)OC1CN2CCC1CC2` (stereo not drawn), which activation is on record?
Its activation is inactive: -1.07%.

For `O=C(Nc1ccncc1[N+](=O)[O-])c1ccc([N+](=O)[O-])cc1[N+](=O)[O-]`, which activation is on record?
Its activation is inactive: -2.53%.

For `COP1(=S)c2c(C)nn(CCC#N)c2N=C(c2ccc(F)cc2)N1C` (stereo not drawn), which activation is on record?
The activation was inactive: -1.62%.

For `COC(=O)C1(C)COP(=O)(N2CCCC2)OC1` (stereo not drawn), which activation is on record?
Its activation is inactive: -0.49%.

For `CCC(C)N(CC(C)C)C(=S)SC(NC(C)=O)C(Cl)(Cl)Cl` (stereo not drawn), which activation is on record?
The activation was inactive: -0.04%.

For `O=C(OC1CN2CCC1CC2)c1cccc([N+](=O)[O-])c1` (stereo not drawn), which activation is on record?
Its activation is inactive: 0.49%.

Which activation does the source give for `CCOC(=O)c1ccc(NC(=O)C(C)(CCl)SC)cc1` (stereo not drawn) here?
Its activation is inactive: 3.47%.

`COP(=O)(OC)N1CC1c1ccccc1` (stereo not drawn) was tested. Which activation did it give?
Its activation is inactive: -1.59%.

`CCCCOc1ccc(C(=O)NCC2(N3CCCCC3)CCCCC2)cc1OC` was tested. Which activation did it give?
Its activation is inactive: -0.76%.

`Cc1cc(SC(NC(=O)c2ccccc2)C(Cl)(Cl)Cl)nc(C(C)C)n1` (stereo not drawn) was tested. Which activation did it give?
The activation was inactive: -1.65%.

Which activation does the source give for `CCOC(=O)Nc1ccc([As](=O)(O)O)c(O)c1` here?
Its activation is inactive: 0.14%.

For `O=C(O)C(O)c1ccc(N(CCCl)CCCl)cc1` (stereo not drawn), which activation is on record?
Its activation is inactive: -0.02%.

With `CC1CCNP(=O)(N(CCCl)CCCl)O1` (stereo not drawn) as the compound, how does the activation read?
Its activation is inactive: 1.2%.

Which activation does the source give for `O=P(Nc1ccccn1)(c1cccc2ccccc12)c1cccc2ccccc12` here?
The activation was inactive: -0.74%.

Which activation does the source give for `Cc1cc(SC(NC=O)C(Cl)(Cl)Cl)ncn1` (stereo not drawn) here?
The activation was inactive: -1.14%.

`O=[N+]([O-])c1ccc(Nc2ccc(Oc3ccc([N+](=O)[O-])cc3[N+](=O)[O-])cc2)c([N+](=O)[O-])c1` was tested. Which activation did it give?
Its activation is inactive: -0.53%.

`CCOC(=O)Nc1cccc([As](=O)(O)O)c1` was tested. Which activation did it give?
The activation was inactive: 0.45%.

For `[N-]=[N+]=NC1CCCCC1NC(=O)c1cc([N+](=O)[O-])cc([N+](=O)[O-])c1` (stereo not drawn), which activation is on record?
Its activation is inactive: -0.82%.

With `Cc1ccc(OP(=O)(Nc2ccc([N+](=O)[O-])cn2)Oc2ccc(C)cc2)cc1` as the compound, how does the activation read?
Its activation is inactive: -2.9%.

Which activation does the source give for `Cc1ccc2nc3c(c(C)c2c1)CC(C(Cl)Cl)S3` (stereo not drawn) here?
Its activation is inactive: 3.29%.

With `O=[As](O)(c1ccc(O)cc1)c1ccccc1O` as the compound, how does the activation read?
Its activation is inactive: 1.03%.

Which activation does the source give for `C[As](=O)(O)c1cccc(C(=O)O)c1` here?
The activation was inactive: 3.39%.

Which activation does the source give for `COc1cc(C(=O)NCC2(N3CCOCC3)CCCCC2)ccc1OCC(C)C` here?
Its activation is inactive: 1.04%.

How did the activation turn out when `O=[N+]([O-])c1ccc(-c2cc([N+](=O)[O-])c(O)c([N+](=O)[O-])c2)cc1` was run?
Its activation is inactive: 1.33%.

`CCN(CC)C(=S)SC(NC=O)C(Cl)(Cl)Cl` (stereo not drawn) was tested. Which activation did it give?
The activation was inactive: -1.02%.

With `O=C(OC1CN2CCC1CC2)c1cccc2[nH]cnc12` (stereo not drawn) as the compound, how does the activation read?
Its activation is inactive: -0.08%.

Which activation does the source give for `CC(C)NC(=O)NP(=O)(Oc1ccccc1)Oc1ccccc1` here?
The activation was inactive: -1.45%.

How did the activation turn out when `ClCCSc1nnc(-c2cccnc2)o1` was run?
The activation was inactive: -1.86%.

`CC(C)c1ccc(OP(=O)(Nc2ccccn2)Oc2ccccc2F)cc1` (stereo not drawn) was tested. Which activation did it give?
Its activation is inactive: 1.32%.

Which activation does the source give for `COC(=O)C1(C)COP(=O)(N2CCCCCC2)OC1` (stereo not drawn) here?
Its activation is inactive: -2.33%.

How did the activation turn out when `O=P1(N(CCCl)CCCl)OCCCN1CCCl` (stereo not drawn) was run?
Its activation is inactive: 1.69%.

Which activation does the source give for `O=P1(N(CCCl)CCCl)Nc2ccccc2N1` here?
Its activation is inactive: 4.98%.

How did the activation turn out when `COc1ccc2nc(NP(=O)(c3ccccc3)c3ccccc3)sc2c1` was run?
Its activation is inactive: -1.22%.

For `COc1cc(I)ccc1[As](=O)(O)O`, which activation is on record?
The activation was inactive: -0.96%.

For `Cc1c2c(nc3ccccc13)SC(C(Cl)Cl)C2` (stereo not drawn), which activation is on record?
Its activation is inactive: -1.23%.

`O=C(OC1CN2CCC1CC2)C12CC3CC(CC(C3)C1)C2` (stereo not drawn) was tested. Which activation did it give?
Its activation is inactive: 0.4%.

`Cc1cc(=O)[nH]c(N[N+](=O)[O-])n1` was tested. Which activation did it give?
The activation was inactive: 0.11%.

`O=[N+]([O-])c1cc(Oc2ccc([N+](=O)[O-])cc2C(F)(F)F)cc([N+](=O)[O-])c1` was tested. Which activation did it give?
Its activation is inactive: -0.75%.

For `COc1ccc(N/C(=N/P(=O)(N2CCOCC2)N2CCOCC2)N2CCOCC2)cc1`, which activation is on record?
Its activation is inactive: -1.24%.
